Experimental data taken from ChEMBL document CHEMBL3259785, “Recent advances in the discovery of small molecules targeting exchange proteins directly activated by cAMP (EPAC)” (J Med Chem, 2014).

By UniProt entry, the sequences of proteins in these tests, tags left out. Where a name states a change or a piece, a line headed by the entry shows the natural chain unless it says otherwise.
UniProt Q8WZA2: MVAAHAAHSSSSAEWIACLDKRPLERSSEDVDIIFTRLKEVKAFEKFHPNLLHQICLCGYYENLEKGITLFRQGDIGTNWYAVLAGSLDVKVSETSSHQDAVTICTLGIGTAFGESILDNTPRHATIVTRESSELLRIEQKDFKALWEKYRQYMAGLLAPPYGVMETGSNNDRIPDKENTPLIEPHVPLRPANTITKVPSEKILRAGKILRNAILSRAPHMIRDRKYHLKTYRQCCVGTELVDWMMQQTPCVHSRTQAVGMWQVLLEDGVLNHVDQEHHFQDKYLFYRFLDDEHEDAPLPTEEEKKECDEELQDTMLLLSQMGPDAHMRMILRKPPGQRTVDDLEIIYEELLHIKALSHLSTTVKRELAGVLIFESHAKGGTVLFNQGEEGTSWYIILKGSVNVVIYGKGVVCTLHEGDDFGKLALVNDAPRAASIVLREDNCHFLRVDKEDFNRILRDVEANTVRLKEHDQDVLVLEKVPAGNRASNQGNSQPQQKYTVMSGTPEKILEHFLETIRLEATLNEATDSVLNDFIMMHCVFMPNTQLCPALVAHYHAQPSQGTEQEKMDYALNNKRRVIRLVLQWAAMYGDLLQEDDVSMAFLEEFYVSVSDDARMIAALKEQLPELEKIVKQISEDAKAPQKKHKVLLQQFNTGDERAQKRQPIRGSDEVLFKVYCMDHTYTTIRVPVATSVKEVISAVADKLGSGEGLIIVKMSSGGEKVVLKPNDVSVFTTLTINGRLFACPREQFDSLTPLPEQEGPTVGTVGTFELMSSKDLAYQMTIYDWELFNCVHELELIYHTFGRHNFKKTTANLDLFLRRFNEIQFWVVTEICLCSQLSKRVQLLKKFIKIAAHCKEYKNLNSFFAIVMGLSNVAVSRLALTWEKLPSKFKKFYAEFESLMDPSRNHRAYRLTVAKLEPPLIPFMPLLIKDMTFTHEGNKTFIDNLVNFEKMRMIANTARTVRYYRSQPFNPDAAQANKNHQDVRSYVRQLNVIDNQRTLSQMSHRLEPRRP

Target: Rap guanine nucleotide exchange factor 4 (Homo sapiens, UniProt Q8WZA2)
Assay: Inhibition of EPAC2 (unknown origin)

SMILES: Cc1ccc(S(=O)(=O)c2c(C)cc(C)cc2C)cc1
- IC50: 0.4 µM
